Holding throughout (test): Kinase profiling in a biochemical assay panel (mobility shift assays and ELISA), %-inhibition at 1 μM; selectivity entropy
Background: An ELISA detects its analyte on a solid surface through an enzyme-linked reagent.

Protein sequences, listed by entry. Tags and fused reporters are not part of them. Residues count along the entry.
UniProt P08581, 25-1390 Y1235D: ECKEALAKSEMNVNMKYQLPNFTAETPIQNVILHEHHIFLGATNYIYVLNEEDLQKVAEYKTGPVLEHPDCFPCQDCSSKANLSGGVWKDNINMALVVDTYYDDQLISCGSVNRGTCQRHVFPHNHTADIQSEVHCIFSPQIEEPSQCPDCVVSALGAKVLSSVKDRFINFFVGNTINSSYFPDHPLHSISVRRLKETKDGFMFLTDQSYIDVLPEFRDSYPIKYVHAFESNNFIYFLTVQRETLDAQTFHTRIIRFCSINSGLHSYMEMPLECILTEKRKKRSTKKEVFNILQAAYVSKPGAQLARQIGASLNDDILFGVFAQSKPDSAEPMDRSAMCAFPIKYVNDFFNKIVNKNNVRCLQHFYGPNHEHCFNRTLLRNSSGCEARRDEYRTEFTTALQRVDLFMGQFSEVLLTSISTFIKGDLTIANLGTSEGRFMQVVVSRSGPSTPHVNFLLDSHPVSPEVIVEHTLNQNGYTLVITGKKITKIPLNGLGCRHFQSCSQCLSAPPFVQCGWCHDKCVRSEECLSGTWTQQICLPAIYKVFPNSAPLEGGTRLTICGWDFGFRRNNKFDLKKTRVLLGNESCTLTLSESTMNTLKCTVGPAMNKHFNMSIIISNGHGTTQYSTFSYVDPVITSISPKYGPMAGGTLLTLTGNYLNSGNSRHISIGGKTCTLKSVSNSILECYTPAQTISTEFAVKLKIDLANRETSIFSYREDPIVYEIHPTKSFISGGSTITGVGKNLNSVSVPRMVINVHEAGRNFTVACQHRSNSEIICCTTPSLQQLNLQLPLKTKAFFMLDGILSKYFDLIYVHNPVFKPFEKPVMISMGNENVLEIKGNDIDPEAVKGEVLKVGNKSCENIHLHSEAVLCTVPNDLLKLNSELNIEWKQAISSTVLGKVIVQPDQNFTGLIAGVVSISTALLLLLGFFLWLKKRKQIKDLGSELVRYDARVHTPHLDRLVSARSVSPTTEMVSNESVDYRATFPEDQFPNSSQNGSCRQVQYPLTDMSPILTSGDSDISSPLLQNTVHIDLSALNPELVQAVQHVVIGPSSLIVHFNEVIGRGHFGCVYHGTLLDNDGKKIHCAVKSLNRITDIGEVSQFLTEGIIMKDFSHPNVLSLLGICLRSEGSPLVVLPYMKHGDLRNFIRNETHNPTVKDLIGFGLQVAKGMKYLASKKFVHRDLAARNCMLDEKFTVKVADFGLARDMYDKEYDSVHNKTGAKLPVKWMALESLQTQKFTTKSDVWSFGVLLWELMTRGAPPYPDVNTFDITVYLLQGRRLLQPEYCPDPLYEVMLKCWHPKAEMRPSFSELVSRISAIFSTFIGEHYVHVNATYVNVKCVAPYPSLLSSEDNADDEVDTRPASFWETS
UniProt Q15349, whole entry, stated change not applied: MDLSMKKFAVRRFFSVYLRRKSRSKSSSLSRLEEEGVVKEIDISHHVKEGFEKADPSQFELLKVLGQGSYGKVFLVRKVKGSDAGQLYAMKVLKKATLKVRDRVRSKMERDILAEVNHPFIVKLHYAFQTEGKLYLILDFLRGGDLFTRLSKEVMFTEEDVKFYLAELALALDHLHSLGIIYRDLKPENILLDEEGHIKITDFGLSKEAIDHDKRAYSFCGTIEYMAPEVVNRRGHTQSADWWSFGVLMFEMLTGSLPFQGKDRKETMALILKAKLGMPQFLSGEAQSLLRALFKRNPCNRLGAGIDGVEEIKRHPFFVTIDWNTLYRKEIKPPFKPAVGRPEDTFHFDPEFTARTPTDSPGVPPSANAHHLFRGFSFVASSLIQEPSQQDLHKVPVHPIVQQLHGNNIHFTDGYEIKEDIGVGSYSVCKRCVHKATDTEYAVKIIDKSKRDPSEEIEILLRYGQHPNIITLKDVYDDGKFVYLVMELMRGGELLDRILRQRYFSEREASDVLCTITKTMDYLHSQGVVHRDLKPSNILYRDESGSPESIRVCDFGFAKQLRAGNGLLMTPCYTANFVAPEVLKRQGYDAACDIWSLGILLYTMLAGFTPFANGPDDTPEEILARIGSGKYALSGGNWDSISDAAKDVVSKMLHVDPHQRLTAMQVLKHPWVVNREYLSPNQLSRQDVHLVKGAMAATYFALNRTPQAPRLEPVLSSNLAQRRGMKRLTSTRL
UniProt O75116, whole entry, stated change not applied: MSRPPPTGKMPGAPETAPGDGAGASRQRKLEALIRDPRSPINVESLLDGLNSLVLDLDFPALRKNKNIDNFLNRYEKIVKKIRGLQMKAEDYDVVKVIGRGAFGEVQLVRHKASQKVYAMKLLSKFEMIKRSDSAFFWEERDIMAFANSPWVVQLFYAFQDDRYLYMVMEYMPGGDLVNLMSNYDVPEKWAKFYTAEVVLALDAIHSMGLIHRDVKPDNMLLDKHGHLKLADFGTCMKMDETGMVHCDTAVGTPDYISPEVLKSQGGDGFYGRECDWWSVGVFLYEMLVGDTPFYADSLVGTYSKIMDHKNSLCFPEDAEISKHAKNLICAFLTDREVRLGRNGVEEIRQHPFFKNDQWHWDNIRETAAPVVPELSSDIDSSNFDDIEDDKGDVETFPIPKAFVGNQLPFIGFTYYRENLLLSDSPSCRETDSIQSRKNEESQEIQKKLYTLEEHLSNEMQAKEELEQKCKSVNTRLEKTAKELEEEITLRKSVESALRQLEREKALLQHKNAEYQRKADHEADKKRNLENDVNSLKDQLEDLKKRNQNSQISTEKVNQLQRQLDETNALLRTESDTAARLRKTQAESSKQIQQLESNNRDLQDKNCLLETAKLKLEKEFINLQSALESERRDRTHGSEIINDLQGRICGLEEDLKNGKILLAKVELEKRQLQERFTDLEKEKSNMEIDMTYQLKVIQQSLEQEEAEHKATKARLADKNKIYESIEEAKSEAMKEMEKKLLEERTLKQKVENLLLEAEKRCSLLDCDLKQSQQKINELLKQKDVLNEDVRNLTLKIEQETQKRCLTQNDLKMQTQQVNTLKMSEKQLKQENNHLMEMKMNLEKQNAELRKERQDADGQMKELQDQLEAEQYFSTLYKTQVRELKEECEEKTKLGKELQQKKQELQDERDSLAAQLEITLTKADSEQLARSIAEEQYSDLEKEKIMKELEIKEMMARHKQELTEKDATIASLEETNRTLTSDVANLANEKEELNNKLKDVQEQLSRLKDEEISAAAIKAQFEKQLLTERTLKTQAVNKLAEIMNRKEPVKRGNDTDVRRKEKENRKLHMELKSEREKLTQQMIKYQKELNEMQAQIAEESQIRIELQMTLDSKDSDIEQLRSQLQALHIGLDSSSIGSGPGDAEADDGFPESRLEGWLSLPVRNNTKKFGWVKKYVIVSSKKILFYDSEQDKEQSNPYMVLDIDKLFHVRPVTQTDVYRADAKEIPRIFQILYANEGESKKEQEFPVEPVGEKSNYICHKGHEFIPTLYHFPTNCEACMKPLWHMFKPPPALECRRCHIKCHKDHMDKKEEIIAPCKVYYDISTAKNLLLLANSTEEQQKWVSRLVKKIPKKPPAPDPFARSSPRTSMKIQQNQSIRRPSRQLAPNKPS
UniProt P07949, 29-1114 Y791F: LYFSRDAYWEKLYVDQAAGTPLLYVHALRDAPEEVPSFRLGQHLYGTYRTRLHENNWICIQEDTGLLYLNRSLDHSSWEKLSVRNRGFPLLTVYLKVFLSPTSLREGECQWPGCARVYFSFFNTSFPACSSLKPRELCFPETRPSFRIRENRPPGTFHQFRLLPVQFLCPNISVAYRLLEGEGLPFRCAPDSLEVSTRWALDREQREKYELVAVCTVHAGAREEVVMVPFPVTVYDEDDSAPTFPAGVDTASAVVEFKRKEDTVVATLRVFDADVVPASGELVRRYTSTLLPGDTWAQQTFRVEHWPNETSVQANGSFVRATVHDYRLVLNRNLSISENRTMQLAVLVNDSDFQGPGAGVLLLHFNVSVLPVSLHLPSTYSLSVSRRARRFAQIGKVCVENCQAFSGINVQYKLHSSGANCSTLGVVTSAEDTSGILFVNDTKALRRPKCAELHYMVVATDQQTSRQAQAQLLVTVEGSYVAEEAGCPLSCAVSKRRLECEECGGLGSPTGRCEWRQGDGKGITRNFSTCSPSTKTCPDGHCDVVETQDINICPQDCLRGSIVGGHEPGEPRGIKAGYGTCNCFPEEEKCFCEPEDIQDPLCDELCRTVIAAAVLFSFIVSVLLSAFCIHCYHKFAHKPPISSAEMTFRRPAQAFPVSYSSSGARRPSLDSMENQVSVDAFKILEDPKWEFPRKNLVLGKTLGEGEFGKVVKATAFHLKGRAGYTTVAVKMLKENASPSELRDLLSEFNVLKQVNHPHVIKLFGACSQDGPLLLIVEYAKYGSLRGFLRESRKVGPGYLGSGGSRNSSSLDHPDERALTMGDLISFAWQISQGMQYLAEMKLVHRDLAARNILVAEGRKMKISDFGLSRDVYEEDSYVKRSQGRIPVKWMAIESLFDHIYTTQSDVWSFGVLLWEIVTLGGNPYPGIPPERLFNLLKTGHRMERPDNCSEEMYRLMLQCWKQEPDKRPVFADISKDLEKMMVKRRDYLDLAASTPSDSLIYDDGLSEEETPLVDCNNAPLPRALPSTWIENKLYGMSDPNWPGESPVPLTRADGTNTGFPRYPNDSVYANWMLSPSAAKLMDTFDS
UniProt Q9BYP7, whole entry, stated change not applied: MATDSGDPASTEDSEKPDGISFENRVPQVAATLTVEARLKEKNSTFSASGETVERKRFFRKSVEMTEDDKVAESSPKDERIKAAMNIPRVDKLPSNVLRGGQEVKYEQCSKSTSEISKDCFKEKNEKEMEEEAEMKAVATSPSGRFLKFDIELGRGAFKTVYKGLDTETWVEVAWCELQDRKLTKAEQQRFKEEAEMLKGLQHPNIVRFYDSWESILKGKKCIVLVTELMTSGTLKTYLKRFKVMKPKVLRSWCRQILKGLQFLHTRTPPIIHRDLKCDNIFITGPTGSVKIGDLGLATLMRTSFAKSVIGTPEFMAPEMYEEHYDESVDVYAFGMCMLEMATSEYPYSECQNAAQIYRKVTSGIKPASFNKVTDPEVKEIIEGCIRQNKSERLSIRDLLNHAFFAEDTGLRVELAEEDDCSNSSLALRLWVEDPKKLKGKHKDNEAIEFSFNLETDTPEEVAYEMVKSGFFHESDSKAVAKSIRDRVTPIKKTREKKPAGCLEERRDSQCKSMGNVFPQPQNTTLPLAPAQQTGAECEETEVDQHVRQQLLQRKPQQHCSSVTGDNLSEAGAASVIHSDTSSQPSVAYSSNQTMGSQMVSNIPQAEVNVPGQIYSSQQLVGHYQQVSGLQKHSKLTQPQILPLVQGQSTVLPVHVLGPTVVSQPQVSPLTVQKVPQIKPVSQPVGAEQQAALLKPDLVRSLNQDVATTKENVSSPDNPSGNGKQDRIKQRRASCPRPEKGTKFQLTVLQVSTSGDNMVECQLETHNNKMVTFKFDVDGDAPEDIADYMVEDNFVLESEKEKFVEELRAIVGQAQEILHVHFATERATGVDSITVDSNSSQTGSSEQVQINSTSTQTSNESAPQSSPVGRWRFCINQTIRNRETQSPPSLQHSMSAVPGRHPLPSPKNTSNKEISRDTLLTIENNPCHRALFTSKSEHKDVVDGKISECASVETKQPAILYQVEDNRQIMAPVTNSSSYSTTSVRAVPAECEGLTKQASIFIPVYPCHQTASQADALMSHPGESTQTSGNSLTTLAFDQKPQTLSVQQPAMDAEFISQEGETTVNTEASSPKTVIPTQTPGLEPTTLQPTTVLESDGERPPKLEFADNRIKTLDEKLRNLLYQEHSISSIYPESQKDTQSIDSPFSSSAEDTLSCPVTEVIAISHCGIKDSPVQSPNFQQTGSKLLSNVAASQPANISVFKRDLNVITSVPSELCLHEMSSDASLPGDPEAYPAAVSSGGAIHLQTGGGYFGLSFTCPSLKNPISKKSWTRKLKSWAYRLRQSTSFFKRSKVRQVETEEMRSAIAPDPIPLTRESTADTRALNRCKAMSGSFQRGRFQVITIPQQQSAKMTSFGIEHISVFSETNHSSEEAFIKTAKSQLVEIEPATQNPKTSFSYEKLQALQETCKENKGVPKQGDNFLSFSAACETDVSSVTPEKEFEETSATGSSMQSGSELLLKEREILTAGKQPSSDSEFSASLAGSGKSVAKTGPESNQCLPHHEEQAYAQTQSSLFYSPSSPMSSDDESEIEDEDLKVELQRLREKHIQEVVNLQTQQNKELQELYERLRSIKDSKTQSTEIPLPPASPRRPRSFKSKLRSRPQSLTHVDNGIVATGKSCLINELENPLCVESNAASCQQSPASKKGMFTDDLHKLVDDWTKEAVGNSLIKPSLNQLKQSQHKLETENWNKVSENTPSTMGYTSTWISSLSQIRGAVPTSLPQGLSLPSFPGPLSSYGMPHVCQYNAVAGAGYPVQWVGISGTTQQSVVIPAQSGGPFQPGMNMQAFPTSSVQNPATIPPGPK

For assay [1], the target named is panel of more than 300 wild-type and mutant kinases (313 kinase panel) (Homo sapiens, UniProt P08581, Y1235D).
The target in assay [2] is panel of more than 300 wild-type and mutant kinases (313 kinase panel) (Homo sapiens, UniProt P23443).
For assay [3], the target named is panel of more than 300 wild-type and mutant kinases (313 kinase panel) (Homo sapiens, UniProt P30530).
For assay [4], the target named is panel of more than 300 wild-type and mutant kinases (313 kinase panel) (Homo sapiens, UniProt Q15349).
Assay [5] deals with panel of more than 300 wild-type and mutant kinases (313 kinase panel) (Homo sapiens, UniProt O14578). As to conditions: 1 µM.
In assay [6] the target is panel of more than 300 wild-type and mutant kinases (313 kinase panel) (Homo sapiens, UniProt O14757). As to conditions: 1 µM.
In assay [7] the target is panel of more than 300 wild-type and mutant kinases (313 kinase panel) (Homo sapiens, UniProt O15111). As to conditions: 1 µM.
The target in assay [8] is panel of more than 300 wild-type and mutant kinases (313 kinase panel) (Homo sapiens, UniProt O75116). As to conditions: 1 µM.
Assay [9] addresses panel of more than 300 wild-type and mutant kinases (313 kinase panel) (Homo sapiens, UniProt P07949, Y791F). As to conditions: 1 µM.
The target of assay [10] is panel of more than 300 wild-type and mutant kinases (313 kinase panel) (Homo sapiens, UniProt P15735). As to conditions: 1 µM.
Assay [11] concerns the target panel of more than 300 wild-type and mutant kinases (313 kinase panel) (Homo sapiens, UniProt P24941). As to conditions: 1 µM.
Assay [12] addresses panel of more than 300 wild-type and mutant kinases (313 kinase panel) (Homo sapiens, UniProt P27361). As to conditions: 1 µM.
Assay [13] concerns the target panel of more than 300 wild-type and mutant kinases (313 kinase panel) (Homo sapiens, UniProt P29322). As to conditions: 1 µM.
In assay [14] the target is panel of more than 300 wild-type and mutant kinases (313 kinase panel) (Homo sapiens, UniProt Q13164). As to conditions: 1 µM.
For assay [15], the target named is panel of more than 300 wild-type and mutant kinases (313 kinase panel) (Homo sapiens, UniProt Q13177). As to conditions: 1 µM.
Assay [16] deals with panel of more than 300 wild-type and mutant kinases (313 kinase panel) (Homo sapiens, UniProt Q5VT25). As to conditions: 1 µM.
Assay [17] addresses panel of more than 300 wild-type and mutant kinases (313 kinase panel) (Homo sapiens, UniProt Q96PY6). As to conditions: 1 µM.
In assay [18] the target is panel of more than 300 wild-type and mutant kinases (313 kinase panel) (Homo sapiens, UniProt Q9BYP7). As to conditions: 1 µM.
Assay [19] concerns the target panel of more than 300 wild-type and mutant kinases (313 kinase panel) (Homo sapiens, UniProt Q9H0K1). As to conditions: 1 µM.
Assay [20] has as its target panel of more than 300 wild-type and mutant kinases (313 kinase panel) (Homo sapiens, UniProt Q9NQU5). As to conditions: 1 µM.
The target in assay [21] is panel of more than 300 wild-type and mutant kinases (313 kinase panel) (Homo sapiens, UniProt Q9NYA1).
Assay [22] deals with panel of more than 300 wild-type and mutant kinases (313 kinase panel) (Homo sapiens, UniProt Q9P1W9). As to conditions: 1 µM.
In assay [23] the target is panel of more than 300 wild-type and mutant kinases (313 kinase panel) (Homo sapiens, UniProt Q9P286). As to conditions: 1 µM.

Consider `CNC(=O)c1ccccc1Sc1ccc2c(/C=C/c3ccccn3)n[nH]c2c1` [axitinib], for which the “%-inhibition of MET(Y1235D)” value in assay [1] (kinase MET(Y1235D), compound at 1 μM) is listed as 20%. Moreover, the “%-inhibition of p70S6K” value in assay [2] (kinase p70S6K, 1 μM) is 12%. The “%-inhibition, AXL” value in assay [3] (kinase AXL, 1 μM compound) worked out at 82%. In [4] (kinase RSK3, 1 μM), the “%-inhibition of RSK3” value is 56%.
Turning to `COc1cc2ncnc(Nc3ccc(F)c(Cl)c3)c2cc1OCCCN1CCOCC1` [gefitinib], in assay [5], the “%-inhibition of CRIK” value worked out at 26%. Moreover, the “%-inhibition, CHK1” value in assay [6] was found to be 17%. Moreover, in assay [7], the “%-inhibition of IKKα” value was -9%. Besides, the “%-inhibition of ROCK2” value in assay [8] turned out to be 3.22%. The “%-inhibition of RET(Y791F)” value in [9] came out at 56%. Besides, in assay [10], the “%-inhibition of PHKG2” value is reported as 8%. Moreover, in assay [11], the “%-inhibition, CDK2/CycA2” value is on record as 5% and the “%-inhibition, CDK2/CycE1” value is reported as -5%. The “%-inhibition of Erk1” value in assay [12] is listed as -2.85%. Further, in [13], the “%-inhibition of EPHA8” value is given as 54%. The “%-inhibition of Erk5” value in assay [14] is 19%. In addition, in assay [15], the “%-inhibition of PAK2” value stood at 3.56%. The “%-inhibition of MRCKα” value in assay [16] came to 1.4%. In addition, the “%-inhibition of NEK1” value in [17] amounted to 7%. In [18], the “%-inhibition of WNK3” value is -5.51%. Moreover, the “%-inhibition of QIK” value in assay [19] is 64%. For the same compound, in [20], the “%-inhibition of PAK6” value is listed as 3%. Besides, the “%-inhibition of SPHK1” value in assay [21] (kinase SPHK1, 1 μM) is listed as -15%. For the same compound, in assay [22], the “%-inhibition of PIM2” value came out at 11%. Also, in assay [23], the “%-inhibition of PAK5” value amounted to 2.83%.
For `C[C@@H]1CCN(C(=O)CC#N)C[C@@H]1N(C)c1ncnc2[nH]ccc12` [tofacitinib], the “%-inhibition of CRIK” value in assay [5] is -11%. Further, in assay [6], the “%-inhibition, CHK1” value turned out to be 0.836%. Further, the “%-inhibition of IKKα” value in [7] was -3.61%. Further, the “%-inhibition of ROCK2” value in assay [8] was 41%. Also, in [9], the “%-inhibition of RET(Y791F)” value was 13%. The “%-inhibition of MET(Y1235D)” value in assay [1] (1 µM) is 1.4%. For the same compound, in assay [10], the “%-inhibition of PHKG2” value is -3%. Moreover, in assay [2] (1 µM), the “%-inhibition of p70S6K” value is given as 13%. Moreover, in assay [11], the “%-inhibition, CDK2/CycA2” value is recorded as -5.49% and the “%-inhibition, CDK2/CycE1” value is listed as -8%. Also, in assay [12], the “%-inhibition of Erk1” value is reported as -1.44%. In addition, in [13], the “%-inhibition of EPHA8” value is on record as -5%. In assay [3] (1 µM), the “%-inhibition, AXL” value was 3%. Also, in [14], the “%-inhibition of Erk5” value was -0.709%. The “%-inhibition of PAK2” value in assay [15] is -21%. Moreover, the “%-inhibition of RSK3” value in [4] (1 µM) came out at 9%. The “%-inhibition of MRCKα” value in assay [16] was -0.575%. In addition, in assay [17], the “%-inhibition of NEK1” value is on record as -3%. Further, in assay [18], the “%-inhibition of WNK3” value is on record as -8%. In addition, the “%-inhibition of QIK” value in assay [19] was determined as 10%. Further, in [20], the “%-inhibition of PAK6” value is -3%. In addition, the “%-inhibition of SPHK1” value in assay [21] (1 µM) is given as -8%. Besides, the “%-inhibition of PIM2” value in assay [22] is reported as -8%. Further, the “%-inhibition of PAK5” value in assay [23] was -1.44%.

The record behind these values is PMC3961306, “Comparison of the Cancer Gene Targeting and Biochemical Selectivities of All Targeted Kinase Inhibitors Approved for Clinical Use” (PLoS ONE, 2014).
